# Experimental data from patent US12324800B2 (priority 2019, dated 2025).
# Assay: THC degradation on heating of cannabis oil films (gas-liquid chromatography)
# Settings: dry films with 14 mg cannabis oil, 1.5 hours at 100° C.
smiles,measurement,value
"CC(C)(C)c1cc(O)ccc1O [TBHQ, tert-butylhydroquinone]",degradation of THC on heating,prevented
